This passage reports IC50 results from patent US6596863B2, “Medical composition containing nitroetheneamine Derivative or salt there of as active constituent” (Ishihara Sangyo Kaisha, Ltd., priority 1998, dated 2003).

Sequences of proteins named here, by UniProt entry; tags and fusion partners are left off. Residues count along the entry.
UniProt P14780, 107-707 limits assumed: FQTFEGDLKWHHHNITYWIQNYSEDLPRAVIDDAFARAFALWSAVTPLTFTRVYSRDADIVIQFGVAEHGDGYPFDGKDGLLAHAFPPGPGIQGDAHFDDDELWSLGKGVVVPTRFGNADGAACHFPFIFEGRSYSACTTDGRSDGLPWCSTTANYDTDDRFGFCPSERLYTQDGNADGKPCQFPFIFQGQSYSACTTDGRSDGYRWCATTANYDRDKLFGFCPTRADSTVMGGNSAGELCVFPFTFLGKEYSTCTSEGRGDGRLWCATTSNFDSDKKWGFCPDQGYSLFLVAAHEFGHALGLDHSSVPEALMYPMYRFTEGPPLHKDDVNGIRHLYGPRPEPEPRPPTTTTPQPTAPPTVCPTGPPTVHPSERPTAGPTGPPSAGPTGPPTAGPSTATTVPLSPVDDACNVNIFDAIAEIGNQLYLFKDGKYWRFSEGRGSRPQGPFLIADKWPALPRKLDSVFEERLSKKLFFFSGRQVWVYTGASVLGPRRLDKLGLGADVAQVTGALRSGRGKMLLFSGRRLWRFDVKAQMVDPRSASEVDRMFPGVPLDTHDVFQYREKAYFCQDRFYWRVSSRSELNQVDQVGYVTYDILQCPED

pIC50: −log10 of the molar value. Where two headings read alike, the source gives them in different places.

In the assay the target is human MMP-9 (gelatinase B) (Homo sapiens, UniProt P14780). Nature of the assay: Inhibition activity against human MMP-9 (gelatinase B), fluorescent peptide substrate. The note with it: compounds of the formula (I). The method, then: Human MMP-9 (gelatinase B) was purified by the following method from a culture supernatant of HT1080 cells (human fibrosarcoma).
2.5×10^6 HT1080 cells (ATCC CCL-121, purchased from Dainippon Seiyaku) were inoculated to a tissue culture dish (Code No. 3020-100, manufactured by Iwaki Glass Co., Ltd.) having a diameter of 10 cm and containing 10 ml of Dulbecco's Modified Eagle Medium (DME, No. D-5648, manufactured by Sigma Co.) containing 10% fetal bovine serum (FBS: REHATUIN™, Code No. 1020-90, manufactured by Intergen Co.) and cultured for 72 hours at 37° C. in an atmosphere comprising 5% of CO2 and 95% of air (Carbon Dioxide Incubator LNA-122D Model, manufactured by Tabai Co.). Then, the medium was changed to 10 ml of a DME culture medium containing no FBS, and phorbol 12-myristate 13-acetate (PMA, code No. 163-114851, manufactured by Wako Pure Chemical Industries, Ltd.) was added so that the final concentration became 10 ng/ml. Under the same conditions, the culturing was carried out for further 20 hours, whereupon the culture supernatant was collected and subjected to cool centrifugation at 4° C. for 5 minutes (cool centrifugal separator, manufactured by Hitachi) to remove cell fragments.
The pH of a conditioned medium (50 ml) containing MMP-9, thus prepared, was adjusted to 8.0 with 0.2N NaOH. […] Namely, the above-mentioned conditioned medium was passed through DEAE-Sephacel (manufactured by Pharmacia, gel volume: about 35 ml) preliminarily equilibrated with 50 mM Tris-HCl, pH 8.0 (A buffer), and a non-adsorption fraction was collected. Then, it was added to Dye Matrix Gel Green A (manufactured by Amicon Co., gel volume: about 6 ml) preliminarily equilibrated with 50 mM Tris-HCl, pH 7.5/10 MM CaCl2/0.05% Brij 35/0.02% NaN3 (B buffer) and thoroughly washed with the same buffer, whereupon the adsorbed enzyme was eluted with a 1M NaCl-containing B buffer. About 7.5 ml of the eluted fraction was diluted twice with the B buffer and added to Gelatin-Sepharose 4B (manufactured by Pharmacia, gel volume: about 6 ml) preliminarily equilibrated with a 0.5 M NaCl-containing B buffer. It was thoroughly washed with a 0.5M NaCl-containing B buffer, and eluted with the B buffer containing 10% of dimethylsulfoxide (DMSO) and 0.5 M of NaCl. 5.5 ml of the eluted fraction was dialyzed against a 0.1 M NaCl-containing B buffer to obtain 5.2 ml of a purified enzyme solution. The purified MMP-9 standard product was confirmed to have a single band of 92 kDa by a protein staining by SDS electrophoresis, and further, it was confirmed to have an adequate gelatin decomposing activity by gelatinzymography (carried out in accordance with a method by Howard E. W. et al; Journal Biological Chemistry, Vol. 266, 13064-13069, 1991) and to have an adequate substrate decomposing activity by the after-mentioned measurement employing a fluorescent peptide substrate specific to MMP.
The inhibition activity against human MMP-9 was measured by the following method in accordance with the method by C. G. Knight et al (FEBS Letters, Vol, 296, 263-266, 1992) employing a fluorescent peptide substrate (7-methoxycoumarin-4-yl)Acetyl-Pro-Leu-Gly-Leu-(3-[2,4-dinitrophenyl]—Ala—Arg-NH2, Code 3163-VC, manufactured by Peptide Institute, Inc.
Further, as the case requires, commercially available human MMP-9 purified enzyme (No. YU-18003, manufactured by Kabushiki Kaisha Yagai Chuo Kenkyusho; used in a final concentration of from 0.0125 to 0.025 unit/ml, No. CC079, manufactured by Chemicon International, Inc.; used in a final concentration of 0.2 μg/ml) was used for the tests. […]

On to `CN(C)CCNC(=C[N+](=O)[O-])NNc1cc(C(F)(F)F)cc(Cl)n1`, for which the negative-log IC50 (pIC50) (commonly the IC50 on a negative log10 scale, so that one unit is a factor of ten) was 5.13 (read-out: MMP-9 inhibition activities IC50, 1st, 1st measurement, tested form: HCl); 5.36 (read-out: MMP-9 inhibition activities IC50, 2nd, 2nd measurement, tested form: HCl); 5.23 (read-out: MMP-9 inhibition activities IC50, Average, average of 1st and 2nd (or single measurement), tested form: HCl).
In the case of `CCOC(=O)c1cnn(NNC(=C[N+](=O)[O-])Nc2ccccc2)c1N`, the pIC50 by setting is: (read-out: MMP-9 inhibition activities IC50, 1st, 1st measurement) 4.45; (read-out: MMP-9 inhibition activities IC50, 2nd, 2nd measurement) 4.77; (read-out: MMP-9 inhibition activities IC50, Average, average of 1st and 2nd (or single measurement)) 4.58.
